{"sequences": {"note": "By UniProt entry, the sequences of proteins in these tests, tags left out. Residues count along the entry.", "UniProt J3SEZ3, 24-851 limits assumed": "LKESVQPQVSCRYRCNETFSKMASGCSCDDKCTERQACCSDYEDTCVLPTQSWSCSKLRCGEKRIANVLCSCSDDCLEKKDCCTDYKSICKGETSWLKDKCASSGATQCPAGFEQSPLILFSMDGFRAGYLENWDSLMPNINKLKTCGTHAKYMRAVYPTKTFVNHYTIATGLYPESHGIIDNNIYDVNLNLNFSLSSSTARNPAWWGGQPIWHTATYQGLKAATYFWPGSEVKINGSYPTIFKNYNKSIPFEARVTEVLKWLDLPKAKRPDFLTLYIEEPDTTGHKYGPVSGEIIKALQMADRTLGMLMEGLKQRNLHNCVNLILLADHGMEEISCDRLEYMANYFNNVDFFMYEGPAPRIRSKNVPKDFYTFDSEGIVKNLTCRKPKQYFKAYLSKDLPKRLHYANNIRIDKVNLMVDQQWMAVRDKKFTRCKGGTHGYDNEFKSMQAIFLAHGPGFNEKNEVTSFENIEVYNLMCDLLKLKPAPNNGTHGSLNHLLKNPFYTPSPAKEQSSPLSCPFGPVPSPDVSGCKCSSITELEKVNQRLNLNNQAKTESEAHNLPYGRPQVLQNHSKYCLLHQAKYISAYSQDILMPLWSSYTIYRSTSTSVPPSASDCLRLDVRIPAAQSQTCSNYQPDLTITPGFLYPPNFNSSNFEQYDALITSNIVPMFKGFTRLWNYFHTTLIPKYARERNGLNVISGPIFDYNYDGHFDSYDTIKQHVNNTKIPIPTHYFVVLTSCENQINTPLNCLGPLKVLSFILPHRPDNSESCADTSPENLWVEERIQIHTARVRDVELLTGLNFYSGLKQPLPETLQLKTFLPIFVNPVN"}, "source": "patent US6770748B2", "about": "“Bicyclonucleoside and oligonucleotide analogue” (priority 1997, dated 2004)", "biological_target": "snake venom phosphodiesterase (Crotalus adamanteus, UniProt J3SEZ3)", "data": [{"substance": "5′-GTTTTTTTTTXXC-3′ [Compound X2]", "values": [{"measurement": "time until ultraviolet absorption reached a plateau after initiation of the enzyme reaction", "result": "about 90 minutes"}, {"measurement": "t½ (half-life)", "setting": "pH 8.6", "result": 14.2, "unit": "min"}]}]}
